Data taken from the Kinase Knowledgebase extract (Sharma et al. 2016).

The chains behind the UniProt entries cited, without tags or fusion partners.
UniProt P42336, whole entry, looked up: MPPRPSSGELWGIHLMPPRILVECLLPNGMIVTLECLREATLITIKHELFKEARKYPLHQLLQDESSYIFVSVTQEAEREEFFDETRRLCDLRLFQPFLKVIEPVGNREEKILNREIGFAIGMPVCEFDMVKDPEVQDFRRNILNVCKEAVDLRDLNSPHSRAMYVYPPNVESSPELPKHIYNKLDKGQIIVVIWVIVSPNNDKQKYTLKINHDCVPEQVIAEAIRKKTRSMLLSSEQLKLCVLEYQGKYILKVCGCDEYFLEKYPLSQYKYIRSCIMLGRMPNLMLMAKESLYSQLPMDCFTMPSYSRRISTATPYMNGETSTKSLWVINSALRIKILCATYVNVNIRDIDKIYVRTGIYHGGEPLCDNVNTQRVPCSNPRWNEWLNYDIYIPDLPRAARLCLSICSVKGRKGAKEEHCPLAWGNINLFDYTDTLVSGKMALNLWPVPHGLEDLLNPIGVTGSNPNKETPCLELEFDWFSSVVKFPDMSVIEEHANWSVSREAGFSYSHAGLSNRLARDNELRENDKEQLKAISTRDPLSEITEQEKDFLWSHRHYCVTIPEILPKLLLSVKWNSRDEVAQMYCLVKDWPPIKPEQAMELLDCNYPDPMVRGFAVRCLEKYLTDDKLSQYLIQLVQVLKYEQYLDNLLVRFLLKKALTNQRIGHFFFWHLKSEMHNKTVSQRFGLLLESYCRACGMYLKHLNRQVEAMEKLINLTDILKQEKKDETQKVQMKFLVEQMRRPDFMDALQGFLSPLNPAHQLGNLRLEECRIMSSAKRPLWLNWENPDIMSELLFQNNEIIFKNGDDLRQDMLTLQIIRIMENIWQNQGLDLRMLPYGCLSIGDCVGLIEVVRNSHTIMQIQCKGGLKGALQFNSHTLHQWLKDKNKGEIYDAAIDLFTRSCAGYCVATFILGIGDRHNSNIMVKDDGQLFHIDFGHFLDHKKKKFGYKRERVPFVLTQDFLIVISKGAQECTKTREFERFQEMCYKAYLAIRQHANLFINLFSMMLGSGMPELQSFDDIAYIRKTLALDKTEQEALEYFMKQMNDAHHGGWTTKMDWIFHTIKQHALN

Molecular target: PIK3CA (human) (UniProt P42336)
Assay: Enzyme Assay

pIC50: 6.72
SMILES: CCc1ncnc(-c2ccc(C(=O)N3CC[C@H](N(C)C)C3)c(C)c2)c1C#Cc1ccc(N)nc1

pIC50: −log10 of the molar value.
